scFv variants of Ab-91 (heavy chain) against a SARS-CoV-2 spike peptide

Data: MIT Lincoln Laboratory AlphaSeq set, Engelhart et al. 2022, doi:10.1038/s41597-022-01779-4, as distributed in FLAb.

Target: peptide PDVDLGDISGINAS, taken from heptad repeat 2 (HR2) of SARS-CoV-2 spike.

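The library (AAYL51) carries one to three amino acid substitutions per variant, with no insertions or deletions. In AlphaSeq, yeast of one mating type display the scFv and yeast of the other type display the target. Mating (16 h, 30 °C) was followed by selection of diploids and sequencing of their barcodes. Read counts were normalised to the haploid input and turned into Kd by a linear fit to BCL2-family pairs of known affinity, for each replicate. There are three technical replicates.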

The variants keep the light chain, the linker and the frameworks of Ab-91 (scFv order VL, three GGGGS repeats, VH).
VL: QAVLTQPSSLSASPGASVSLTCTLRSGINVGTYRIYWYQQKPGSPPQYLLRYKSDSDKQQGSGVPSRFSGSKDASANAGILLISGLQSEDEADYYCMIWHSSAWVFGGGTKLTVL
VH: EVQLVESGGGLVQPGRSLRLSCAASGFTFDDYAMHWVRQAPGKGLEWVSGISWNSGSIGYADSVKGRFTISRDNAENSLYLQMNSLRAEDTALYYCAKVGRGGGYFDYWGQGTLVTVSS

Variants are written as CDR1, CDR2 and CDR3 of the heavy chain (limits as in the source). Parent: GFTFDDYAMH, GISWNSGSIGYADSVK, VGRGGGYFDY. All variants listed here change Y32 of the VH, counted from its first residue. Values are apparent Kd, the geometric mean of the replicates that gave a signal; lower means stronger binding. A pair that was not seen in any replicate is written "no signal"; this usually means weak binding, but a binder can also be missed. Three control strains display no target. For library AAYL51, 21% of the pairings with them gave a signal, with a median of 34 µM and one signal in twenty below 1.8 µM, so weak values seen in few replicates may be background.

| CDR-H1 | CDR-H2 | CDR-H3 | Kd | seen in |
|---|---|---|---|---|
| GFTFWDQAMH | GISWNSGSIGYAVSVK | VGRGGGYFDY | 16 µM | 3/3 |
| GFTEDDNAMH | GISRNSGSIGYADSVK | VGRGGGYFDY | 65 µM | 1/3 |
| GFTFDDMAMH | GISWNSGSIGYADSVK | VGTGGGQFDY | no signal | 0/3 |
| GFTFDDAAMH | GISWNSGSIGYADSVK | VGRGGGYFDY | 310 nM | 3/3 |
| GFTFDDFAMH | GISWNSGSIGYAMSVK | VGQGGGYFDY | no signal | 0/3 |
| GPTFDDKAMH | GISWNSGSIGYADSVK | VGRGGGYFDY | 1.3 mM | 1/3 |
| GFTFHDTAMH | GISWNSGSIGYARSVK | VGRGGGYFDY | 7.1 µM | 3/3 |
| GFTFDDKAMH | GISWNSGSIGYADSVE | VGRGGGYNDY | no signal | 0/3 |
| FFTFDDTAMH | GISWNSMSIGYADSVK | VGRGGGYFDY | 5.5 µM | 2/3 |
| GFTFNDGAMH | GHSWNSGSIGYADSVK | VGRGGGYFDY | 170 µM | 1/3 |
| GFTFDDKAMH | GISFNSGSIGYADSTK | VGRGGGYFDY | no signal | 0/3 |
| GFTFDDEAMH | GISWNSGSIGYDDSVK | VGRGGGYFWY | no signal | 0/3 |
| GFTEDDPAMH | GISWNSGSIGYADSVK | VGRGGNYFDY | 69 µM | 3/3 |
| GFTFDDDAMH | GISWNSGSIGYADSVK | CHRGGGYFDY | 36 µM | 2/3 |
| GFTFDDHKMH | GISWNSGSIGYQDSVK | VGRGGGYFDY | no signal | 0/3 |
| GFTFDNMAMH | GISWNSGSIGYADSVK | VGRGGGYFDY | no signal | 0/3 |
| GFTFDCNAMH | GISWNSNSIGYADSVK | VGRGGGYFDY | 31 nM | 3/3 |
| GFTFDDNAMH | GISWNSGSIGYADHVK | VGRGGGYFDY | 2.3 µM | 2/3 |
| GFTFDDPAMH | GISWNSGSIGYADSVK | VGRGFGYFDY | no signal | 0/3 |
| GFTFDDFAMH | GISWNSYQIGYADSVK | VGRGGGYFDY | 130 nM | 3/3 |
| GFTFDDSAMH | GISWKSGSIGYADSVK | VGRGGGYFDY | no signal | 0/3 |
| GFTFDDRAMH | GISWNSGSISYADSVK | VGWGGGYFDY | no signal | 0/3 |
| GFTFDDRAMH | GISWNSGSIGYADHVK | YGRGGGYFDY | no signal | 0/3 |
| GFTFDDEAMH | GIRWNSGSIGYADSVK | VGRGAGYFDY | 49 µM | 2/3 |
| GFTFDDSAMH | RISMNSGSIGYADSVK | VGRGGGYFDY | no signal | 0/3 |
| GFTFDDLAMH | GISWNSDSIGYADSVK | KGRGGGYFDY | no signal | 0/3 |
| GFFFDDCAMH | GISWNSGSIGYADEVK | VGRGGGYFDY | 27 µM | 1/3 |
| GFTFDDCMMH | GISWNSGSIGYADSVK | VGRGGGVFDY | 61 µM | 2/3 |
| GFTFDDRAMH | GISWNEGSIGYADSVK | VGRGGGNFDY | 3.3 µM | 1/3 |
| GFTFDDHAMH | GISWNSGSIGYVDSVK | VGRGGGYFDY | 1.3 µM | 2/3 |
| GFTFDDVAMH | GFSWNSGSIGYADSVK | VGIGGGYFDY | 23 µM | 1/3 |
| GFTFDDTAMH | GISWESGSIGYADSVK | VGRGGGYFDY | 35 µM | 2/3 |
| GFTFDDGAMH | GISWNWGSIGYADSVK | VGRGGEYFDY | no signal | 0/3 |
| GFTFDDSAMF | GISWNSGSIGYADSVK | VGRGGGYFDS | no signal | 0/3 |
| GFTFDDEAMH | GISWNSGSIDYADSVK | VGRGGGYFLY | 3.3 µM | 1/3 |
| GFTFDDKAMH | GISWNSGSIGYADSVK | PGRGGWYFDY | no signal | 0/3 |
| GFTFDDIAMH | GISWNSGSIDYADSVK | VGRGGGYFDY | 9.3 µM | 1/3 |
| GFLFDDKAMH | GISWNSGSIGYADSVF | VGRGGGYFDY | 48 µM | 1/3 |
| GFFFDDTAMH | GISWNSGSIGYADSVK | VCRGGGYFDY | no signal | 0/3 |
| GFTFDDLAMH | GISWNSGSIGYADSVK | VGRVGFYFDY | no signal | 0/3 |
| GFTFDDFAMH | GISWNAGSIGYADSVK | VGRGGGYPDY | no signal | 0/3 |
| GFTFDDVAMH | GISMNSGSIGYADSVK | VGDGGGYFDY | no signal | 0/3 |
| GFTFDDVKMH | GISWNSGSIGYADSVK | PGRGGGYFDY | 11 µM | 1/3 |
| GFTFDDPAMH | GISWNSGSIGYADSVK | GGRGGGYFDY | no signal | 0/3 |
| GFTFDDQEMH | GISWNSGSIGYADSVK | VGRGGGWFDY | 3.1 µM | 3/3 |
| GFTFDDQLMH | GISWNSGSIGYADSVK | VGRGGGYFDY | no signal | 0/3 |
| GFTFDDHAMH | GISWNSGSIGYADSVM | VGRGGGYFCY | no signal | 0/3 |
| GFTFDDFAMH | GISWNSGSIGYADSVK | VGRGGGYFDY | 150 nM | 1/3 |
| GFTLDDMAMH | GKSWNSGSIGYADSVK | VGRGGGYFDY | no signal | 0/3 |
| GFTFDDMAMH | GISWNSGSIGYADSVK | VSRGGGYSDY | 23 µM | 2/3 |
| GFTFDDRAMH | GISWNSGSIGYADSVK | VGRGFGYFDH | no signal | 0/3 |
| GFTFDDEAMH | GISWKSGSIGYADSVK | VGRGGGYFDY | 310 nM | 3/3 |
| GFTWDDWAMH | GISWNSGSIGYRDSVK | VGRGGGYFDY | 57 µM | 1/3 |
| GFTFDDMAMP | GISWNSGSIGYADFVK | VGRGGGYFDY | no signal | 0/3 |
| GFTFDDAAYH | GISWNSGSIGYADSVK | VGRIGGYFDY | 21 µM | 1/3 |
| GCTFDDCAMH | GDSWNSGSIGYADSVK | VGRGGGYFDY | no signal | 0/3 |
| GFTFDDWAMH | GISWNSDSIGYADSVK | VARGGGYFDY | 230 nM | 3/3 |
| GFTFDDLAMH | GISWNSGSIGYADSVK | VGRGGGYFDY | 2.2 mM | 1/3 |
| GFTFDDVAMH | GISWNSGSIGYADSVK | VGQFGGYFDY | no signal | 0/3 |
| GFTFDERAMH | GISWNSGSIGNADSVK | VGRGGGYFDY | no signal | 0/3 |
| GFTFDDDAMH | GISWNSGSNGYADSVK | VGKGGGYFDY | 30 µM | 2/3 |
| GFTFDDEARH | GISWYSGSIGYADSVK | VGRGGGYFDY | 1.4 mM | 1/3 |
| GFTNDDLAMH | GISWNSGSIGYAGSVK | VGRGGGYFDY | 5.2 µM | 1/3 |
| GFTFDDLAMY | GFSWNSGSIGYADSVK | VGRGGGYFDY | no signal | 0/3 |
| GFVFDDMAMH | GISWNSGSIGYADSVK | VGRGGGYFVY | no signal | 0/3 |
| GFTFDDNAMH | GISWNSGSIGYADSVK | VGRGGGYFDE | no signal | 0/3 |
| GFTFDDPAMH | GKSWTSGSIGYADSVK | VGRGGGYFDY | 3.2 µM | 1/3 |